According to PubChem BioAssay:
Only a part is listed here, and it is no random draw. Active and inactive are the calls of the source.

Chains of the proteins cited; added tags and fusions are not shown. Lines headed by an entry give the natural chain unless they say otherwise; changes in a name come on top.
UniProt Q8NFQ8: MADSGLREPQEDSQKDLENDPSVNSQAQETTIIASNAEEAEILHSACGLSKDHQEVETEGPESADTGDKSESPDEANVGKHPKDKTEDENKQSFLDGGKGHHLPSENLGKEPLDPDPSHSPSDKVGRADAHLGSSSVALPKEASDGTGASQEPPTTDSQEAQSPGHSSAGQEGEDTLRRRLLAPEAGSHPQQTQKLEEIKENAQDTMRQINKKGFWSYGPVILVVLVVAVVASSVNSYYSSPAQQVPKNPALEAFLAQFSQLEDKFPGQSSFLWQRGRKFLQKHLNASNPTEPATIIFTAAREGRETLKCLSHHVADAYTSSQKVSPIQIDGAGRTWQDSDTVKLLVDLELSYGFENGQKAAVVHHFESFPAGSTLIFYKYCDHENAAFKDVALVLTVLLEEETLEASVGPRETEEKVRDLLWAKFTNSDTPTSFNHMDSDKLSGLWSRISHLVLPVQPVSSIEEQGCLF
UniProt Q9UM47, whole entry, looked up: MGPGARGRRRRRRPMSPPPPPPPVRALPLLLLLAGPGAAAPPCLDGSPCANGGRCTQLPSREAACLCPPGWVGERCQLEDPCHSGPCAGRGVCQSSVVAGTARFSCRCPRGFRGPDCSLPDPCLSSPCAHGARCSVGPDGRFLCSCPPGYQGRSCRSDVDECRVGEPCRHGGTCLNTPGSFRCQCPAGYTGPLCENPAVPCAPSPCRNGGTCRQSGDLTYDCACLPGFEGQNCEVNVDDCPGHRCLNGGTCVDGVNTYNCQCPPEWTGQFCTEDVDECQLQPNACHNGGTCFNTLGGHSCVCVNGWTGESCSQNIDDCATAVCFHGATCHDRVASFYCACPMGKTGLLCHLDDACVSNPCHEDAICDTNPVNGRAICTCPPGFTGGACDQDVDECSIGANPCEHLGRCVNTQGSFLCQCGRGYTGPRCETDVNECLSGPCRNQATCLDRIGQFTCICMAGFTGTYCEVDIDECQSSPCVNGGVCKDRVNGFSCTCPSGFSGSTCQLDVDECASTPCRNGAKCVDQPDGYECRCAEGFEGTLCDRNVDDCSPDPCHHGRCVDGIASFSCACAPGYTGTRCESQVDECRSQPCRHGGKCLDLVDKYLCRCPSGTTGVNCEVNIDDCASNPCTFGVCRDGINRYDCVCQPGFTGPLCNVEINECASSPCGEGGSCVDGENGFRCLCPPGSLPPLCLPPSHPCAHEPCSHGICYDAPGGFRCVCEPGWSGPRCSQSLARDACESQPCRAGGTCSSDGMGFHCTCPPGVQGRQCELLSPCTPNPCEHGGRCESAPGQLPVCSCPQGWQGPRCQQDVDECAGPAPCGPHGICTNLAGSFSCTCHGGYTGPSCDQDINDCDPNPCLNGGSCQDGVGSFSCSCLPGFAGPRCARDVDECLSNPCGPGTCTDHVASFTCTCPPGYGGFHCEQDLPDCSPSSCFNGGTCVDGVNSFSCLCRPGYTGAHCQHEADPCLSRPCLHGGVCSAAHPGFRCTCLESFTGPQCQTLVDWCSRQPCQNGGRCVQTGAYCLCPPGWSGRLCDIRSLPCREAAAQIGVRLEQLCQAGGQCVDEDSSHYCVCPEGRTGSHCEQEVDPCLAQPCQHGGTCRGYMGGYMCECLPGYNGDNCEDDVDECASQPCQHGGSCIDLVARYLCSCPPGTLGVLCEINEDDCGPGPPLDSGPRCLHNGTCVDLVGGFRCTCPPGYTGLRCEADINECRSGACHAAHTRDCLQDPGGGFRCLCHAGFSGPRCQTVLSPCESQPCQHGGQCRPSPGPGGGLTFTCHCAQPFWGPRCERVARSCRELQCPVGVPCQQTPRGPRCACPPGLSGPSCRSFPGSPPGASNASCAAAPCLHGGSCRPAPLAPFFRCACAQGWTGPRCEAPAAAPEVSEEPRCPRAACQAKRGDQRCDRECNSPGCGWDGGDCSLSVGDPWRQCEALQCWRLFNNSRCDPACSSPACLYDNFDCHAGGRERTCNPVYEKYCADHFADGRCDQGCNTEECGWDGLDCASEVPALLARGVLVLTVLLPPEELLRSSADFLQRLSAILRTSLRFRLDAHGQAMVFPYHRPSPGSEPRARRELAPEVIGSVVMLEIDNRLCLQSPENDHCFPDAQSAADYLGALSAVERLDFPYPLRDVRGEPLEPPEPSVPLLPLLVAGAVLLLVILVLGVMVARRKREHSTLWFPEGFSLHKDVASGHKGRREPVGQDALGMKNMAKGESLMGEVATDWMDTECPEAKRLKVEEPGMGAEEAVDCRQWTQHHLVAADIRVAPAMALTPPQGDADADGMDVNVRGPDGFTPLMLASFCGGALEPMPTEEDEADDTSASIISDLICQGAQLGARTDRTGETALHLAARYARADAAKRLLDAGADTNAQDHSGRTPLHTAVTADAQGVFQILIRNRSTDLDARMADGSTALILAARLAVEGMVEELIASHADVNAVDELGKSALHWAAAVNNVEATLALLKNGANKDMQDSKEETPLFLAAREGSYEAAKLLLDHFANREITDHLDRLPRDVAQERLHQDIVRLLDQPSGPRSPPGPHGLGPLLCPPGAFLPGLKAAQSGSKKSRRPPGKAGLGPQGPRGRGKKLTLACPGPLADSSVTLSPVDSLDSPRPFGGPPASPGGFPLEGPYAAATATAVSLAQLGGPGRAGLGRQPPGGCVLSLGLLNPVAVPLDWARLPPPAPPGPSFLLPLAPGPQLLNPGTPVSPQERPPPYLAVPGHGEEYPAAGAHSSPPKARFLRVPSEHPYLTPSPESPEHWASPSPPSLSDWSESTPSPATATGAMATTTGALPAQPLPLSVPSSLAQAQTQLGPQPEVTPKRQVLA
UniProt O15520: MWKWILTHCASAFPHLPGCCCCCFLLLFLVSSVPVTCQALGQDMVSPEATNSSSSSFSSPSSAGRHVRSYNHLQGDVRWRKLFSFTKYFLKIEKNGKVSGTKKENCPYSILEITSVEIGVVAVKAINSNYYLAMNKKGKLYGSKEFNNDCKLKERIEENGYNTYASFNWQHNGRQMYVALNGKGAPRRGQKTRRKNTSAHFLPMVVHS
UniProt O95633: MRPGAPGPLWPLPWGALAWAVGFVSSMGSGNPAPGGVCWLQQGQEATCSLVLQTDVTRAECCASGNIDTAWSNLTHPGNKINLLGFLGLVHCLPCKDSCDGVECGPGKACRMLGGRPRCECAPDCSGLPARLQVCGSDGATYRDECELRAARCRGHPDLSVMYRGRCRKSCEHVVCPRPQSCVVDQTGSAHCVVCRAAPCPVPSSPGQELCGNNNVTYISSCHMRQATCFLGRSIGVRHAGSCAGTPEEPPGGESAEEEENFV
UniProt O94907: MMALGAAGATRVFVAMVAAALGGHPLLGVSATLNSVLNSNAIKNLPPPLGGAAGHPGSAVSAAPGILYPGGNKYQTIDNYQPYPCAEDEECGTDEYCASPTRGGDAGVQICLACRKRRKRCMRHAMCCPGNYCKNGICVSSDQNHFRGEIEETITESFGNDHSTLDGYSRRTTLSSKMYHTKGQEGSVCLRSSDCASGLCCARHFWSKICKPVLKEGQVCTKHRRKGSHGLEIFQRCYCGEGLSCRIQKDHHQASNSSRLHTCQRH
UniProt O00292: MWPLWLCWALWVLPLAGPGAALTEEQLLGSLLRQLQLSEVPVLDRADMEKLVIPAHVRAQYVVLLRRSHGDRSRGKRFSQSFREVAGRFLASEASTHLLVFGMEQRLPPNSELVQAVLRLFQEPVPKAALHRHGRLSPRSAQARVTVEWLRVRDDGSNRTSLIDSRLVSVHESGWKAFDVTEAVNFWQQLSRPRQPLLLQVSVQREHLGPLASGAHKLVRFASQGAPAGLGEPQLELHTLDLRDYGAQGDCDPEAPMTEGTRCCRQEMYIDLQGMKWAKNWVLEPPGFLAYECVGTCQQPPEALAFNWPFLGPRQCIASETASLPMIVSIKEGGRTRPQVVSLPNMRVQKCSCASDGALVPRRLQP

How the values were obtained:
[1] = tested on: PRMT1 (protein arginine N-methyltransferase 1); assay: small molecules binding arginine methyltransferase PRMT1 – biochemical, small-molecule microarray, 635 nm fluorescence, primary screen (AID 1088); conditions: higher = more signal;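 also: binding of Prmt1 protein to compounds spotted on small-molecule microarray slides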
[2] = growth effects on S. cerevisiae YJM789 – YJM789 clinical isolate, OD600, 24 h, basal, primary screen (AID 1089); conditions: higher = more signal, called active from +8 up or from −8 down;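 also: growth of clinical yeast isolate S. cerevisiae YJM 789 seeded 1000 cells per well; test concentration not given here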
[3] = target: Torsin-1A-interacting protein 2 (Homo sapiens) (UniProt Q8NFQ8); assay: small molecules binding lysate-expressed LULL1 – cell lysate, human LULL1 lysate, 635/667 nm fluorescence, primary screen (AID 1092); conditions: small-molecule microarray, hLULL1 lysate binding, 635 nm fluorescence; higher = more signal;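 also: probe is lysate of COS7 cells overexpressing human LULL1; score merges per-feature 667 nm fluorescence with signal-to-noise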
[4] = probe aLefty2 binding to arrayed compounds – biochemical, biotinylated probe, 635/667 nm fluorescence, primary screen (AID 1094); conditions: small-molecule microarray, higher = more signal;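 also: score merges spot fluorescence near 667 nm with spot signal-to-noise ratio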
[5] = tested on: Noggin (protein binding on small-molecule microarray); assay: small molecules binding Noggin protein – biochemical, 635/667 nm fluorescence, primary screen (AID 1095); conditions: 635 nm fluorescence, higher = more signal;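 also: score merges 667 nm feature fluorescence with signal to noise over triplicate slides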
[6] = target: Neurogenic locus notch homolog protein 3 (Homo sapiens) (UniProt Q9UM47); assay: small molecules binding NOTCH3 protein – biochemical, 635/667 nm fluorescence, primary screen (AID 1096); conditions: small-molecule microarray, 635 nm fluorescence, higher = more signal
[7] = probe aEGFR binding to arrayed compounds – biochemical, biotinylated probe, 635/667 nm fluorescence, primary screen (AID 1097); conditions: small-molecule microarray, higher = more signal;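 also: probe is a biotinylated anti-EGFR antibody binding compounds printed on slides; score combines fluorescence near 667 nm and signal to noise of each spot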
[8] = probe aDKK1 binding to arrayed compounds – biochemical, biotinylated probe, 635/667 nm fluorescence, primary screen (AID 1099); conditions: small-molecule microarray, higher = more signal;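 also: score merges 667nm spot fluorescence with signal to noise across triplicate slides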
[9] = probe aCHRDL2 binding to arrayed compounds – biochemical, biotinylated probe, 635/667 nm fluorescence, primary screen (AID 1100); conditions: small-molecule microarray, higher = more signal
[10] = change in splice reporter luminescence, either direction, cell-based, HEK293, spliceosome inhibition project, primary screen (AID 1101); conditions: HEK293 splicing luciferase reporter, 24 h, higher = more signal, called active from +8 up or from −8 down;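 also: HEK293 cells carrying a splicing-competent luciferase reporter gene; test concentration not given here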
[11] = target: Fibroblast growth factor 10 (Homo sapiens) (UniProt O15520); assay: compounds binding fibroblast growth factor 10 – biochemical, small-molecule microarray, 635 nm fluorescence, primary screen (AID 1102); conditions: FGF10 binding, fluorescence 635 nm, higher = more signal
[12] = tested on: glycogen synthase kinase-3 (GSK3A per assay name; protocol says GSK3B); assay: compounds binding glycogen synthase kinase-3 – biochemical, small-molecule microarray, 635 nm fluorescence, GSK3A, primary screen (AID 1103); conditions: fluorescence 635 nm, higher = more signal; also: the record names both GSK3A and GSK3B
[13] = target: Epidermal growth factor receptor (Homo sapiens) (UniProt P00533); assay: compounds binding epidermal growth factor receptor – biochemical, small-molecule microarray, 635 nm fluorescence, primary screen (AID 1104); conditions: EGFR binding, higher = more signal;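 also: score merges 667 nm emission intensity with spot signal to noise over triplicate slides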
[14] = target: Follistatin-related protein 3 (Homo sapiens) (UniProt O95633); assay: compounds binding follistatin-related protein 3 – biochemical, small-molecule microarray, 635 nm fluorescence, primary screen (AID 1105); conditions: FSTL3 binding, higher = more signal;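 also: score merges emission near 667 nm and signal to noise per printed spot across three slides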
[15] = target: Dickkopf-related protein 1 (Homo sapiens) (UniProt O94907); assay: small molecules binding DKK1 protein – biochemical, small-molecule microarray, 635 nm fluorescence scan, primary screen (AID 1106); conditions: higher = more signal;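 also: score merges emission near 667 nm with signal to noise over three replicate slides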
[16] = tested on: Inhibin beta A chain (activin A); assay: small molecules binding activin A – biochemical, small-molecule microarray, 635 nm fluorescence scan, primary screen (AID 1107); conditions: INHBA, higher = more signal;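 also: mouse activin A protein probed at 4.33 µg/mL on printed slides; score merges bound-protein fluorescence near 667 nm with spot signal-to-noise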
[17] = hepatitis C replication reporter changes, two-sided – Huh7 cells, luciferase reporter, HCV replication inhibitor project, primary screen (AID 1109); conditions: Huh7 HCV replicon luciferase reporter, 48 h; higher = more signal;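 also: huh7 hepatoma cells harbouring a luciferase neomycin HCV replicon reporter; luciferase luminescence as measure of HCV replicon replication; test concentration not given here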
[18] = target: Left-right determination factor 2 (Homo sapiens) (UniProt O00292); assay: small molecules binding LEFTY2 protein – biochemical, small-molecule microarray, 635 nm fluorescence scan, primary screen (AID 1110); conditions: higher = more signal
[19] = target: Calmodulin-1 (Homo sapiens) (UniProt P0DP23); assay: small molecules binding calmodulin-1 with EGTA – biochemical, small-molecule microarray, Cy5-labelled CALM1, profiling panel (AID 1111); conditions: Cy5-CALM1 binding fluorescence, higher = more signal;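 also: labelled calmodulin applied in Tris saline Tween buffer holding calcium plus EGTA and DTT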
[20] = target: Calmodulin-1 (Homo sapiens) (UniProt P0DP23); assay: small molecules binding Ca-loaded calmodulin-1 – biochemical, small-molecule microarray, Cy5-labelled CALM1, plus calcium, artefact control for SMM control-protein annotation, profiling panel (AID 1112); conditions: Cy5-CALM1 binding fluorescence, higher = more signal;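 also: score merges spot fluorescence with signal to noise from triplicate slides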

## COP(=O)(/N=C1/CC(CCCO)=CC(C2CC2)N1C)OC (stereo not given)
[1]
  composite z-score: 0.0908
[2]
  z-score: inactive: -1.03
[3]
  composite z-score: 1.27
[4]
  composite z-score: -0.188
[5]
  composite z-score: 0.278
[6]
  composite z-score: -0.628
[7]
  composite z-score: -0.0831
[8]
  composite z-score: -0.291
[9]
  composite z-score: -0.118
[10]
  z-score: inactive: -1.6
[11]
  composite z-score: 0.539
[12]
  composite z-score: 0.586
[13]
  composite z-score: -0.294
[14]
  composite z-score: 0.419
[15]
  composite z-score: 1.23
[16]
  composite z-score: 0.922
[17]
  z-score: -0.456
[18]
  composite z-score: 0.275
[19]
  composite z-score: 1.59
[20]
  composite z-score: 0.44

## COP(=O)(/N=C1/CC(c2ccc(CO)cc2)=CC(c2cccs2)N1C)OC (stereo not given)
[1]
  composite z-score: 0.352
[2]
  z-score: inactive: 0.231
[3]
  composite z-score: 0.866
[4]
  composite z-score: 0.43
[5]
  composite z-score: 1.24
[6]
  composite z-score: -0.142
[7]
  composite z-score: 0.164
[8]
  composite z-score: 0.875
[9]
  composite z-score: 1.02
[10]
  z-score: inactive: -0.53
[11]
  composite z-score: 1.17
[12]
  composite z-score: 0.12
[13]
  composite z-score: -0.642
[14]
  composite z-score: 0.133
[15]
  composite z-score: 0.63
[16]
  composite z-score: 1.53
[17]
  z-score: 0.155
[18]
  composite z-score: -0.775
[19]
  composite z-score: 1.6
[20]
  composite z-score: 1.16

## O=P(/N=C1/CC(c2ccc(CO)cc2)=CC(C2CC2)N1Cc1sc2ccccc2c1Cl)(Oc1ccccc1)Oc1ccccc1 (stereo not given)
[1]
  composite z-score: 1.54
[2]
  z-score: inactive: -1.92
[3]
  composite z-score: 2.76
[4]
  composite z-score: 0.0802
[5]
  composite z-score: 1.26
[6]
  composite z-score: 1.1
[7]
  composite z-score: 0.047
[8]
  composite z-score: -0.0058
[9]
  composite z-score: 0.233
[10]
  z-score: inactive: -0.524
[11]
  composite z-score: 1.38
[12]
  composite z-score: 1.1
[13]
  composite z-score: 0.423
[14]
  composite z-score: 0.926
[15]
  composite z-score: 0.659
[16]
  composite z-score: 1.11
[17]
  z-score: -0.862
[18]
  composite z-score: 0.646
[19]
  composite z-score: 1.11
[20]
  composite z-score: 0.809

## COP(=O)(/N=C1/CC(CCCO)=CC(C)N1Cc1cccc(OC(F)(F)F)c1)OC (stereo not given)
[1]
  composite z-score: 0.0444
[2]
  z-score: inactive: -1.18
[3]
  composite z-score: 1.71
[4]
  composite z-score: 0.145
[5]
  composite z-score: 0.315
[6]
  composite z-score: 0.234
[7]
  composite z-score: 0.09
[8]
  composite z-score: 0.642
[9]
  composite z-score: 0.667
[10]
  z-score: inactive: -1.4
[11]
  composite z-score: 0.652
[12]
  composite z-score: 0.583
[13]
  composite z-score: 0.073
[14]
  composite z-score: 0.284
[15]
  composite z-score: 0.554
[16]
  composite z-score: 1.38
[17]
  z-score: -0.276
[18]
  composite z-score: 0.0568
[19]
  composite z-score: 2.05
[20]
  composite z-score: 1.36

## CN1/C(=N\P(=O)(Oc2ccccc2)Oc2ccccc2)CC(CCCO)=CC1c1ccc(CN2CCCC2)cc1 (stereo not given)
[1]
  composite z-score: 0.633
[2]
  z-score: inactive: -0.739
[3]
  composite z-score: 2.67
[4]
  composite z-score: 0.103
[5]
  composite z-score: 1.01
[6]
  composite z-score: 1.13
[7]
  composite z-score: 0.224
[8]
  composite z-score: 0.733
[9]
  composite z-score: 0.626
[10]
  z-score: inactive: -0.518
[11]
  composite z-score: 1.36
[12]
  composite z-score: 0.92
[13]
  composite z-score: 0.271
[14]
  composite z-score: 1.14
[15]
  composite z-score: 0.705
[16]
  composite z-score: 0.807
[17]
  z-score: -2.24
[18]
  composite z-score: 0.41
[19]
  composite z-score: 1.61
[20]
  composite z-score: 0.871

## O=P(/N=C1/CC(CCCO)=CC(C2CC2)N1Cc1cccc(OC(F)(F)F)c1)(Oc1ccccc1)Oc1ccccc1 (stereo not given)
[1]
  composite z-score: 0.46
[2]
  z-score: inactive: -2.03
[3]
  composite z-score: 3.1
[4]
  composite z-score: -0.107
[5]
  composite z-score: 0.287
[6]
  composite z-score: -0.0317
[7]
  composite z-score: -0.179
[8]
  composite z-score: 0.0202
[9]
  composite z-score: 0.272
[10]
  z-score: inactive: 0.139
[11]
  composite z-score: -0.0449
[12]
  composite z-score: 0.0232
[13]
  composite z-score: -0.288
[14]
  composite z-score: -0.244
[15]
  composite z-score: -0.118
[16]
  composite z-score: 0.804
[17]
  z-score: -1.51
[18]
  composite z-score: -0.191
[19]
  composite z-score: 0.358
[20]
  composite z-score: 1

## COP(=O)(/N=C1/CC(CCCO)=CC(C2CC2)N1Cc1cccc(OC(F)(F)F)c1)OC (stereo not given)
[1]
  composite z-score: -0.0741
[2]
  z-score: inactive: -1.24
[3]
  composite z-score: 1.26
[4]
  composite z-score: -0.152
[5]
  composite z-score: 0.0186
[6]
  composite z-score: -0.261
[7]
  composite z-score: -0.0422
[8]
  composite z-score: -0.0727
[9]
  composite z-score: 0.5
[10]
  z-score: inactive: -1.65
[11]
  composite z-score: -0.274
[12]
  composite z-score: -0.46
[13]
  composite z-score: -0.278
[14]
  composite z-score: -0.292
[15]
  composite z-score: -0.391
[16]
  composite z-score: 1.67
[17]
  z-score: -1.71
[18]
  composite z-score: -0.49
[19]
  composite z-score: 1.11
[20]
  composite z-score: 1.2
